Assay results taken from PubChem BioAssay (NCI).
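The compound was tested at five concentrations on cells cultured in 96-well plates, with a 48-hour exposure period. GI50 marks 50% less growth. Definition used: TGI = concentration required for complete inhibition of growth.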

Tested on: MDA-MB-468 breast
Test: inhibition of tumour cell growth, NCI panel, 48 h

## COc1c(C)cc(N(CCCl)CCCl)c2ccccc12
  GI50: 955 nM
  TGI: 3890 nM
